Target: aprotinin (UniProt P00974)

trypsin
cleavage of fluorogenic substrate BGAR-MCA by trypsin: 2 U/ml aprotinin which inhibited trypsin activity by ˜100%

From patent US9549967B2, “Regulation of sodium channels by PLUNC proteins” (The University of North Carolina at Chapel Hill, priority 2009, dated 2017)
